Yeast mating assay B: variants of the scFv Ab-14

Data: MIT Lincoln Laboratory AlphaSeq set, Li et al. 2023, doi:10.1038/s41467-023-39022-2, as distributed in FLAb.

Target peptide (SARS-CoV-2 spike, HR2 region): PDVDLGDISGINAS

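This is the validation round: designs drawn from the data on random variants, tested in the same kind of assay. Their group label is 14H_GP_Gen (GP: Gaussian process model; Gen: genetic algorithm; a sequence that several methods proposed may carry one label only). The scFvs were displayed on barcoded MATa yeast, the peptide on MATalpha yeast. After mating in shaken culture at 30 °C for 16 h, diploids were selected and their barcode pairs sequenced. Read counts were normalised to the haploid input and turned into Kd by a linear fit to BCL2-family pairs of known affinity, for each replicate. There are six technical replicates.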

The variants keep the light chain, the linker and the frameworks of Ab-14 (scFv order VH, a (GGGGS)3 linker, VL).
VH: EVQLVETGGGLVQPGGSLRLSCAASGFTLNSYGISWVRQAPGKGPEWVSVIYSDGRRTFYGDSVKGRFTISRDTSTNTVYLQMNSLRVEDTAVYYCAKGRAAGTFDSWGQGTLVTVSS
VL: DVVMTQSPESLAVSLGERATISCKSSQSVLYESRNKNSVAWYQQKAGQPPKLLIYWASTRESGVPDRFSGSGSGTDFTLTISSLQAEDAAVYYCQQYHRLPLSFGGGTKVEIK

Each variant is given by its three heavy chain CDRs, as the data file delimits them; those of the parent are GFTLNSYGIS, VIYSDGRRTFYGDSVK, GRAAGTFDS.
The read-out is the apparent dissociation constant on a log10 scale (nM): the lower, the stronger.
A mean of the replicates is given; it leaves out those without a signal.
A pair that was not seen in that replicate is written "n.d."; this usually means weak binding, but a binder can also be missed.
Values of this round are not directly comparable with the first-round values of the same sequences.

CDR-H1,CDR-H2,CDR-H3,"replicates, log10 nM","log10 Kd (nM), mean",signal with controls
MFSLNEYGIS,VIYSDGRRTFYGDSVK,GRNAGTFDS,n.d. n.d. n.d. 2.23 n.d. n.d.,2.23,0/18
GFELNQYGIS,VIYSDGRRTFYGDSVK,GRQAGTFDS,0.82 -0.01 0.18 0.46 0.38 -0.04,0.30,2/18 (1.62)
GFSLNSYGIS,VIYSDGRRTFYGDSVK,GNAAGTFDL,0.81 0.50 0.19 -0.15 -0.28 0.03,0.18,0/18
GFDLNSYGIS,VIYSDGRRTFYQDRVK,GRTAGTFDS,0.60 0.19 0.09 0.67 0.12 0.59,0.38,0/18
EFDLNSYGIS,VIYSDGRRTFYADSVK,GRTAGTFDS,0.81 1.16 0.00 -0.02 0.40 0.82,0.53,0/18
GFSLNSYGIS,VIYSDGRRTFYADNVK,GKTAGTFDS,0.52 0.35 -0.01 -0.27 -0.18 0.74,0.19,0/18
GFDLNSYGIS,VIYSDGRRTFYSDRVK,GEAAGTFDS,1.24 0.72 1.38 0.54 0.95 1.11,0.99,0/18
GFHLNSYGIS,VIYSDGRRTFYGDSVK,GWTAGTFDS,n.d. 1.52 0.85 1.30 1.16 1.63,1.29,0/18
GFWLNEYGIS,VIYSDGRRTFYGDSVK,GRTAGTFDE,1.72 n.d. 2.32 n.d. n.d. n.d.,2.02,0/18
GFNLNSYGIS,VIYSDGMRTFYGDSVK,GRQAGTFDS,1.18 1.63 1.60 0.82 1.78 2.29,1.55,1/18 (2.62)
GFSLNEYGIS,VIYSDGRRTFYGDSVK,GRTAGTFDY,0.23 -0.21 -0.29 -0.30 -0.35 0.19,-0.12,0/18
GFTLNSYGIS,VIYSDGKRTFYADSVK,GQAAGTFDL,1.07 0.64 0.56 0.22 0.61 1.18,0.71,0/18
GFSLNEFGIS,VIYSDGRRTFYGDSVK,GRTAGTFDS,0.06 0.14 0.24 -0.47 0.12 -0.17,-0.01,0/18
GFGLNAYGIS,VIYSDGRRTFYGDSVK,GRTAGTFDS,0.22 0.61 0.89 1.01 1.21 1.08,0.84,0/18
GFGLNSYGIS,VIYSDGRRTFYADSVK,GRQAGTFDS,-0.03 0.37 0.79 0.05 0.15 0.95,0.38,0/18
GFDLNSYGIS,VIYSDGKRTFYSDSVK,GRTAGTFDS,0.38 -0.28 0.27 -0.08 0.07 0.30,0.11,0/18
GFDLNSYGIS,VIYSDGRRTFYSDSVK,GQAAGTFDA,-0.22 -0.14 -0.68 -0.73 -0.28 0.24,-0.30,0/18
GFDLNSYGIS,VIYSDGRRTFYGDSVK,GATAGTFDS,0.02 1.16 1.44 -0.41 0.01 1.07,0.55,0/18
KFSLNSYGIS,VIYSDGRRTFYGDSVK,GRIAGTFDS,n.d. n.d. n.d. n.d. n.d. n.d.,n.d.,0/18
GFWLNSYGIS,VIYADGRRTFYGDSVK,GNAAGTFDS,0.38 0.46 0.07 -0.25 0.32 0.59,0.26,1/18 (2.02)
GFSLNEYGIS,VIYSDGRRTFYGDSVK,GKAAGTFDR,0.44 0.70 0.22 0.87 0.65 0.91,0.63,0/18
GFGLNEYGIS,VIYSDGRRTFYGDQVK,GRNAGTFDS,1.25 0.41 0.84 1.52 0.90 1.13,1.01,0/18
GFDLNSYGIS,VIYSDGRRTFYADSVK,GKAAGTFDV,0.24 0.03 0.28 0.19 0.03 0.29,0.18,0/18
GFQLNSYGIS,VIYSDGRRTFYADSVK,GRNAGTFDS,n.d. n.d. 1.17 1.28 2.00 1.45,1.47,0/18
KFSLNSYGIS,VIYSDGKRTFYGDSVK,GRTAGTFDS,n.d. 1.14 0.64 1.12 0.66 1.36,0.98,0/18
GFNLNSYGIS,VIYSDGRRTFYSDSVK,GNAAGTFDS,0.36 0.39 -0.02 0.03 0.15 0.25,0.19,0/18
GFELNSYGIS,VIYSDGRRTFYIDSVK,GREAGTFDS,n.d. n.d. n.d. n.d. n.d. n.d.,n.d.,0/18
KFDLNSYGIS,VIYSDGRRTFYGDSVK,GQAAGTFDS,n.d. n.d. n.d. 1.33 n.d. n.d.,1.33,0/18
GFWLNEYGIS,VIYSDGRRTFYGDSVK,GRTAGTFDL,n.d. n.d. n.d. n.d. -0.67 0.00,-0.34,0/18
SFDLNSYGIS,VIYSDGRRTFYGDSVK,GKTAGTFDS,0.47 -0.15 0.63 0.37 0.41 0.40,0.36,0/18
GFDLNSYGIS,VIYSDGRRTFYIDSVK,GKAAGTFDV,0.25 0.73 0.02 0.42 0.13 0.58,0.35,0/18
GFELNSYGIS,VIYSDGRRTFYGDSVK,GQTAGTFDQ,1.00 0.74 -0.18 0.83 0.15 0.87,0.57,0/18
GFHLNSYGIS,VIYSDGRRTFYGDQVK,GKTAGTFDS,n.d. n.d. n.d. n.d. n.d. n.d.,n.d.,0/18
GFDLNSYGIS,VIYSDGRRTFYDDSVK,GRLAGTFDS,0.41 0.15 0.08 -0.04 0.03 0.24,0.15,1/18 (1.86)
GFDLNSYGIS,VIYSDGRRTFYADSVK,GRAAGTFDV,0.10 -0.13 0.25 -0.24 -0.12 0.61,0.08,0/18
GFQLNEYGIS,VIYSDGRRTFYGDSVK,GRNAGTFDS,0.53 -0.27 0.26 0.02 0.13 0.51,0.20,0/18
GFNLNSYGIS,VIYSDGRRTFYGDSVK,GNEAGTFDT,-0.36 -0.37 -0.31 -0.78 -0.59 -0.26,-0.45,0/18
GFYLNSYGIS,VIYSDGRRTFYIDSVK,GQTAGTFDS,1.77 n.d. n.d. n.d. 1.76 n.d.,1.77,0/18
KFDLNSYGIS,VIYSDGRRTFYQDSVK,GREAGTFDS,0.60 0.12 0.10 0.66 0.29 0.19,0.33,0/18
SFDLNSYGIS,VIYSDGRRTFYADSVK,GNAAGTFDS,0.49 0.40 0.38 1.04 n.d. 0.68,0.60,0/18
SFDLNSYGIS,VIYSDGRRTAYGDSVK,GRQAGTFDS,0.64 0.43 0.47 0.72 0.66 0.87,0.63,0/18
GFGLNEYGIS,VIYSDGRRTAYGDSVK,GRAAGTFDS,0.06 -0.15 -0.12 0.04 -0.01 -0.14,-0.05,1/18 (1.81)
GFELNSYGIS,VIYSDGRRTFYGDSVK,GKTAGTFDE,0.54 0.86 0.75 0.47 1.41 0.83,0.81,0/18
GFQLNDYGIS,VIYSDGRRTFYGDSVK,GRQAGTFDT,0.94 0.89 1.10 1.13 0.50 1.60,1.03,0/18
GFSLNSYGIS,VIYSDGRRTFYVDSVK,GRNAGTFDT,0.10 0.69 0.46 -0.03 -0.10 0.91,0.34,0/18
GFDLNSYGIS,VIYSDGRRTFYSDSVK,GKEAGTFDS,-0.44 -0.61 -0.48 -0.60 -0.66 -0.58,-0.56,1/18 (3.40)
GFELNSYGIS,VIYSDGRRTFYVDSVK,GRLAGTFDS,n.d. n.d. 2.17 1.32 0.94 1.41,1.46,0/18
GFDLNSYGIS,VIYSDGRRTFYGDRVK,GREAGTFDS,1.38 0.60 0.50 0.44 0.56 0.35,0.64,0/18
KFSLNEYGIS,VIYSDGKRTFYGDSVK,GRTAGTFDS,-0.47 0.22 -0.17 -0.31 0.08 0.39,-0.04,0/18

From the list, the first 3 with no signal in any replicate:

CDR-H1	CDR-H2	CDR-H3	replicates, log10 nM	log10 Kd (nM), mean	signal with controls
KFSLNSYGIS	VIYSDGRRTFYGDSVK	GRIAGTFDS	n.d. n.d. n.d. n.d. n.d. n.d.	n.d.	0/18
GFELNSYGIS	VIYSDGRRTFYIDSVK	GREAGTFDS	n.d. n.d. n.d. n.d. n.d. n.d.	n.d.	0/18
GFHLNSYGIS	VIYSDGRRTFYGDQVK	GKTAGTFDS	n.d. n.d. n.d. n.d. n.d. n.d.	n.d.	0/18

As a blank, each scFv also met three strains without target: over all heavy chain designs, 1% of these pairings were detected, typically at 2.08 and seldom below 0.84. For each scFv, signals with the empty controls are counted beside the result, with their mean in brackets.
In the paper, a design with two or fewer of six values counts as a poor binder.
The parent sequence was in this pool as ten entries: three were never detected, three once, and four in most replicates, with averages from 0.34 to 2.37.